The values below come from patent publication US9023857B2, “Substituted 6-(2-aminobenzylamino)purine derivatives, their use as medicaments and preparations containing these compounds” (Univerzita Palackeho V Olomouci, priority 2009, dated 2015).

What is called IC50 is the midpoint of a concentration-inhibition curve.

Each structure is given as a SMILES string.

The experiment has as its system breast carcinoma MCF7. Nature of the experiment: In vitro cytotoxic activity (Calcein AM, 72 hours), MCF7. Particulars: Homo sapiens, MCF7, 72 h, read-out: Cytotoxicity IC50 MCF7.

Consider `Cn1cnc2c(NCc3ccccc3)nc(NCCO)nc21` [OC], for which the half-inhibitory concentration (IC50) is 132 µM.
